Measurements published in PubChem BioAssay AID1012 (Sanford-Burnham Center for Chemical Genomics, 2008).
The entries are a selection whose mix differs from that of the whole data set. The source made the active and inactive calls.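 The calls were made as follows: active = tissue-nonspecific alkaline phosphatase inhibition above about 50% at 20 µM in the single-dose screen (limit read from the data); inactive = the rest.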

The chains behind the UniProt entries cited, without tags or fusion partners. Where a name states a change or a piece, a line headed by the entry shows the natural chain unless it says otherwise.
UniProt P05186: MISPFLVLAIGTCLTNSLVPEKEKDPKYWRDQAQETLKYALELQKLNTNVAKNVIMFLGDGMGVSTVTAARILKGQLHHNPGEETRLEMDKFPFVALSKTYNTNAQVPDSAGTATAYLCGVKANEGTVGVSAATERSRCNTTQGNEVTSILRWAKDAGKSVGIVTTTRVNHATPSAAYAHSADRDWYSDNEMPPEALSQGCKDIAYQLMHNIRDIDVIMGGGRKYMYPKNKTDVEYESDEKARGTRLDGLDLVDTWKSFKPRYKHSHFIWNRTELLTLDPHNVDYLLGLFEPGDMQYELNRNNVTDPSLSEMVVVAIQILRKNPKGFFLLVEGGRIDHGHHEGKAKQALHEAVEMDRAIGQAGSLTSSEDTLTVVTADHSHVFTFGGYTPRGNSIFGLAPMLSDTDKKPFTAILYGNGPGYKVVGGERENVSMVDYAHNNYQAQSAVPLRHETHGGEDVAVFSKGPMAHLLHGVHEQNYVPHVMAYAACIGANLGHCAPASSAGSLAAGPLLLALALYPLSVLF

Each compound was assayed against Alkaline phosphatase, tissue-nonspecific isozyme (Homo sapiens) (UniProt P05186) (assay: blockers of alkaline phosphatase TNAP activity – biochemical, luminescent, no phosphate acceptor, uHTS, primary screen (AID 1012;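 also: 0% = DMSO negative control and 100% = EDTA positive control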)). Conditions: purified TNAP, CDP-star luminescence, 30 min; at 20 µM; hits give high values.

Row | Structure (SMILES) | inhibition
1 | Clc1ccc(Cl)c(NC2=NCC(CBr)S2)c1 (centres undefined) | inactive: -25.1%
2 | CN1CCCC(OC(=O)C(c2ccccc2)c2ccccc2)C1 (centres undefined) | inactive: -7.4%
3 | COc1ccccc1OP(=O)(Nc1ccc(C)cn1)Oc1ccccc1OC | inactive: -9.7%
4 | Cc1ccc(N/C(=N/P(=O)(N2CCOCC2)N2CCOCC2)N2CCOCC2)cc1 | inactive: -10.7%
5 | NC(=O)c1cc([N+](=O)[O-])cc([N+](=O)[O-])c1N | inactive: -1.4%
6 | Cc1c2non([O-])c-2c(C)[n+](=O)[n+]1[O-] | inactive: 2.3%
7 | O=C(NC(Sc1ccncn1)C(Cl)(Cl)Cl)c1ccccc1 (centres undefined) | inactive: -21.7%
8 | Oc1ccccc1CNc1ccccn1 | inactive: -13%
9 | CC(C)CC(=O)NC(Sc1ccc(Cl)cc1)C(Cl)(Cl)Cl (centres undefined) | inactive: 7%
10 | CCOP(=O)(Nc1ccccc1)OCC | inactive: -2.3%
11 | Cc1cc(SC(NC(=O)c2ccc(F)cc2)C(Cl)(Cl)Cl)ncn1 (centres undefined) | inactive: -2%
12 | CCN(N=Nc1nonc1N)c1nonc1N | inactive: -4%
13 | O=[N+]([O-])c1ncn(CCn2ncnc2[N+](=O)[O-])n1 | inactive: -6.3%
14 | CCc1nc2c(n1)c1c(non1O)c1c2no[n+]1[O-] | inactive: -14.2%
15 | O=[N+]([O-])c1cc([N+](=O)[O-])c(CCNc2ccccc2)c([N+](=O)[O-])c1 | inactive: 0.2%
16 | Cc1ccc(NP(=O)(Oc2ccccc2)Oc2ccccc2)nc1 | inactive: -1.7%
17 | O=[N+]([O-])c1cccc2n[nH]nc12 | inactive: -13.9%
18 | CC(=O)N1C2C3N(C(C)=O)C1C1N(C(C)=O)C(C(N1C(C)=O)N3C(C)=O)N2C(C)=O | inactive: -4.1%
19 | COc1ccc(C2=NCC(CBr)S2)cc1 (centres undefined) | inactive: -4%
20 | CC1CCN(C(=O)Oc2c(Cl)cc(Cl)c3cccnc23)CC1 | inactive: -3.7%
21 | CN(C)C(=O)OCCc1n(C)cc[n+]1C | inactive: -9.1%
22 | CC(C)=N/N=C(\N)N[N+](=O)[O-] | inactive: -7.1%
23 | CCN(/C(=N/P(=O)(N1CCOCC1)N1CCOCC1)N1CCOCC1)c1ccc(OC)cc1 | inactive: -10%
24 | c1nnnn1CCn1cnnn1 | inactive: -12.4%
25 | CC(C)C(=O)NC(Sc1ccccc1)C(Cl)(Cl)Cl (centres undefined) | inactive: 3.7%
26 | O=P(Nc1nccs1)(c1ccccc1)c1ccccc1 | inactive: -6.4%
27 | O=P(Nc1ccccn1)(c1ccc(Br)cc1)c1ccc(Br)cc1 | inactive: -1.4%

Row | Structure (SMILES) | inhibition
28 | O=C(OC1CN2CCC1CC2)c1cccc(Cl)c1 (centres undefined) | inactive: -6.3%
29 | C(Cc1nn[nH]n1)Cc1nn[nH]n1 | inactive: -8.9%
30 | CC(=O)NC(SC(=S)N(C)C)C(Cl)(Cl)Cl (centres undefined) | inactive: -0.8%
31 | CCOC(=O)NC(Sc1ccccc1)C(Cl)(Cl)Cl (centres undefined) | inactive: -1.3%
32 | c1ccc(-c2nn[nH]n2)c(-c2nn[nH]n2)c1 | inactive: -1.9%
33 | CCNC(=S)/N=C(\N)N[N+](=O)[O-] | inactive: -6.4%
34 | O=C(NC1CCS(=O)(=O)C1)NP(=S)(Oc1ccccc1)Oc1ccccc1 (centres undefined) | inactive: -16.4%
35 | O=c1c2cc([N+](=O)[O-])ccc2[nH]c2c([N+](=O)[O-])cc([N+](=O)[O-])cc12 | inactive: 33%
36 | CCC(=O)N1C2C3N(C(=O)CC)C1C1N(C(=O)CC)C(C(N1C(=O)CC)N3C(=O)CC)N2C(=O)CC | inactive: -1.6%
37 | Cc1ccc(OP(=O)(Nc2ccccn2)Oc2ccc(C)cc2)cc1 | inactive: -5.6%
38 | CC(=O)NC(SC(=S)N(CC(C)C)CC(C)C)C(Cl)(Cl)Cl (centres undefined) | inactive: 6.6%
39 | COC(=O)c1cc2c(s1)N=C(c1ccccc1)N(C)P2(=O)N1CCOCC1 (centres undefined) | inactive: -9.9%
40 | CC(C)(C)C(=O)NC(Sc1ccccc1)C(Cl)(Cl)Cl (centres undefined) | inactive: -3.4%
41 | CCOc1ccc(C2=NCC(CBr)S2)cc1 (centres undefined) | inactive: -7.4%
42 | O=P1(Nc2nc3ccc(Cl)cc3s2)COc2ccccc2O1 (centres undefined) | inactive: -8.2%
43 | CC(=O)Nc1ccc(Oc2c([N+](=O)[O-])cc([N+](=O)[O-])cc2[N+](=O)[O-])cc1 | inactive: 4.8%
44 | Cc1cccc(OCC(=O)OC2CN3CCC2CC3)c1 (centres undefined) | inactive: -13.1%
45 | COc1cc(C(=O)NCC2(N3CCOCC3)CCCCC2)cc(Cl)c1OC(C)C | inactive: -14.7%
46 | CCOP(=O)(Nc1cccc2ccccc12)OCC | inactive: -3.8%
47 | COc1cc(C2NCCC3(OCCO3)C2(C)C)cc(OC)c1OC (centres undefined) | inactive: -17.2%
48 | Cc1ccc(NCCc2c([N+](=O)[O-])cc([N+](=O)[O-])cc2[N+](=O)[O-])cc1 | inactive: -0.2%
49 | O=P(Nc1nccs1)(c1ccccc1)c1nc2ccccc2s1 (centres undefined) | inactive: -5.3%
50 | O=P(Nc1nccs1)(Oc1ccccc1)Oc1ccccc1 | inactive: -4.5%
51 | CCOP1(=S)c2c(C)nn(CCC#N)c2N=C(c2ccccc2F)N1C (centres undefined) | inactive: -8.4%
52 | CCOP1(=S)c2c(C)nn(CCC#N)c2N=C(c2ccc(F)cc2)N1C (centres undefined) | inactive: -7.8%
53 | O=[N+]([O-])c1ccc2c(c1)nnn2O | inactive: -9.8%
54 | CN(C)C1(CNC(=O)c2ccc(S(C)(=O)=O)cc2)CCCCC1 | inactive: -9.9%

Row | Structure (SMILES) | inhibition
55 | CC1CCC(C(C)C)C(OP(=O)(Nc2ccccn2)c2ccccc2)C1 (centres undefined) | inactive: -16.5%
56 | Cc1nn(-c2ccccc2)c2c1P(=O)(N1CCOCC1)N(C)C(c1ccccc1)=N2 (centres undefined) | inactive: -12%
57 | O=P1(Nc2ccc(Br)cn2)COc2ccccc2OC1 | inactive: -5.1%
58 | Cc1ccc(OCC(=O)OC2CN3CCC2CC3)cc1 (centres undefined) | inactive: -5.5%
59 | O=P1(Nc2ncccn2)COc2ccccc2OC1 | inactive: 9%
60 | Clc1n[nH]nc1-c1nn[nH][15n]1 | inactive: -7.8%
61 | O=P1(Nc2ccccn2)COc2ccccc2OC1 | inactive: -4.7%
62 | CC(C)/C=N\N=C(\N)N[N+](=O)[O-] | inactive: -2.4%
63 | CN(C(=O)Cc1ccc(Cl)c(Cl)c1)[C@@H]1CCCC[C@H]1N1CCCC1 | inactive: -11.9%
64 | O=C(COc1ccccc1)OC1CN2CCC1CC2 (centres undefined) | inactive: -6.1%
65 | COP1(=S)c2c(C)nn(CCC#N)c2N=C(c2ccc(F)cc2)N1C (centres undefined) | inactive: -3.7%
66 | CCC(C)N(CC(C)C)C(=S)SC(NC(C)=O)C(Cl)(Cl)Cl (centres undefined) | inactive: 10.3%
67 | Cc1cc(SC(NC(=O)c2ccccc2)C(Cl)(Cl)Cl)nc(C(C)C)n1 (centres undefined) | inactive: -30%
68 | O=P(Nc1ccccn1)(c1cccc2ccccc12)c1cccc2ccccc12 | inactive: -5.1%
69 | Cc1cc(SC(NC=O)C(Cl)(Cl)Cl)ncn1 (centres undefined) | inactive: -2.6%
70 | Cc1ccc2nc3c(c(C)c2c1)CC(C(Cl)Cl)S3 (centres undefined) | inactive: -10.7%
71 | O=[N+]([O-])c1cc([N+](=O)[O-])c(-c2ccn[nH]2)s1 | inactive: 6.3%
72 | CCN(CC)C(=S)SC(NC=O)C(Cl)(Cl)Cl (centres undefined) | inactive: -6.4%
73 | CC(C)NC(=O)NP(=O)(Oc1ccccc1)Oc1ccccc1 | inactive: -10.2%
74 | ClCCSc1nnc(-c2cccnc2)o1 | inactive: -1.9%
75 | COc1ccc2nc(NP(=O)(c3ccccc3)c3ccccc3)sc2c1 | inactive: -20%
76 | Cc1c2c(nc3ccccc13)SC(C(Cl)Cl)C2 (centres undefined) | inactive: -2%
77 | Cc1cc(=O)[nH]c(N[N+](=O)[O-])n1 | inactive: -0.3%
78 | O=C(OC1CN2CCC1CC2)C12CC3CC(CC(C3)C1)C2 (centres undefined) | inactive: -14.9%
79 | COc1ccc(N/C(=N/P(=O)(N2CCOCC2)N2CCOCC2)N2CCOCC2)cc1 | inactive: -7%
